Test results: patent US7786151B2, “Therapeutic composition of treating abnormal splicing caused by the excessive kinase induction” (KinoPharma, Inc., priority 2004, dated 2010)

Test system: adenovirus E1A pre-mRNA alternative splicing
Assay: In vivo splicing assay, adenovirus E1A minigene with Clk1/Sty in COS-7 cells
Settings: COS-7, RT-PCR

CCN1/C(=C/C(C)=O)Sc2ccc(OC)cc21 [TG003, (Z)-1-(3-ethyl-5-methoxy-2,3-dihydrobenzothiazol-2-ylidene)propan-2-one]
E1A 9 S isoform production induced by Clk1/Sty: inhibited the production of the 9 S isoform
